## scFv variants of Ab-14 (light chain) against a SARS-CoV-2 spike peptide

Antigen: PDVDLGDISGINAS, a 14-residue peptide of the SARS-CoV-2 spike HR2 region.

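Phage display of a naive human antibody library on the peptide gave the parent. Designed CDR sequences, proposed from the first random library and measured here. Their group label is 14L_Ctrl (Ctrl: baseline library sampled from a position-specific scoring matrix, with some repeated check sequences). The scFvs were displayed on barcoded MATa yeast, the peptide on MATalpha yeast. Mating (16 h, 30 °C) was followed by selection of diploids and sequencing of their barcodes. The ratio of observed to expected reads was calibrated, replicate by replicate, on BCL2-family standards whose Kd was known from biolayer interferometry. The assay was run in six technical replicates.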

Ab-14 is the parent antibody, in scFv form: VH, then the linker GGGGSGGGGSGGGGS, then VL. The heavy chain is unchanged in all variants.
VH: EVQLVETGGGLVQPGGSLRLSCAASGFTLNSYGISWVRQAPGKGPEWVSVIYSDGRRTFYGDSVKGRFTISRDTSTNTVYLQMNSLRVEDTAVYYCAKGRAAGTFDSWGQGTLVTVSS
VL: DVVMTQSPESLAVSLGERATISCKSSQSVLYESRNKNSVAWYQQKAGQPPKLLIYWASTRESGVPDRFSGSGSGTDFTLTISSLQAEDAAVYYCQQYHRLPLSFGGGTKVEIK

Each variant is given by its three light chain CDRs, as the data file delimits them; those of the parent are KSSQSVLYESRNKNSVA, WASTRES, QQYHRLPLS. Numbers give log10(Kd / nM), so 0 is 1 nM and 3 is 1 µM. Smaller is tighter. Where no diploid with the target was found in that replicate, the entry reads "ND": below detection, most likely a poor binder, though not proof of it. Background: pairings of all light chain designs with three empty control strains gave a value in 4% of cases (median 2.64, 5th percentile 1.59). Values in that range, when seen in few replicates, are hard to tell from nonspecific mating. The control count says in how many pairings with the empty strains this scFv gave a signal, with their mean in brackets. The range of this assay differs from that of the first round, and the authors advise against merging the two. In the paper, a design with two or fewer of six values counts as a poor binder.

CDR-L1,CDR-L2,CDR-L3,log10 Kd (nM) by replicate,control signals
KSSQSLLYESRNKNSVA,WASTRES,QQYHTLPLS,ND ND ND 1.14 4.41 2.58,0 of 18
KSSESVLYESRNKNSVA,EASTRES,QQYHRLPLS,0.54 0.16 -0.04 0.12 0.38 0.06,2 of 18 (2.83)
KHSQSVLYESNNKNSVA,AAGTAES,QQYHRLPLS,2.06 1.92 0.93 0.77 2.58 1.41,0 of 18
KSSQSVLYESNNVHSVA,WASTRES,QQYHRLPTS,ND ND ND ND ND ND,0 of 18
KGSQSVLYESLNKNSVA,QASTRES,QQYSRLPLS,-0.02 0.03 0.04 -0.28 -0.06 0.01,2 of 18 (2.40)
KSSNSVLGESRNKNSVA,EASTRED,QQYHRLPLS,0.47 0.47 0.52 0.37 0.49 0.40,1 of 18 (2.70)
KNSQGVLYESREKNSVA,WASTRHS,QFYHRLILS,ND ND ND ND ND ND,0 of 18
KWSQSVLYESRNLNSVA,WASTREA,QVYHRLPLS,1.46 ND ND ND ND ND,1 of 18 (1.98)
KSSQSVLYESRNKNSVA,WATTRES,QQYHNLPLS,ND ND 1.06 ND ND ND,0 of 18
KSSQSVLYESENSNSVA,WASTRES,QQYHYLPLS,ND ND ND 2.62 ND ND,0 of 18
KSSQSVLYESRNKNSVA,WASKRES,QQYQRLPLS,ND ND 2.00 ND 2.26 ND,0 of 18
KSDQSVLYESVNKGSVA,WASTREL,QQYDRWPLQ,ND ND ND ND 1.90 ND,0 of 18
KSSQSVLYEHRNANSVA,WATTREF,QQYHRLPLS,0.92 1.13 ND ND ND ND,0 of 18
KVSQSVLYENRNKNSVA,WASTRES,DQYHRLPLS,ND ND ND ND ND ND,0 of 18
KSSQSVLYESRNKNSVA,HAMTRES,QQYLRLPLS,1.74 1.76 1.38 1.43 1.26 1.36,1 of 18 (2.94)
KSSQSVLHESREKNSIA,WASTRES,SQYHRLPLS,2.18 ND ND ND ND ND,0 of 18
KMSQSVLYESYNKNSVA,WISTRES,QQYHRLPLS,ND ND ND ND ND ND,0 of 18
KLPQSVLYESRNKNSVA,SASTRES,QQYARLTLS,1.19 1.00 1.76 1.71 1.52 1.20,2 of 18 (1.90)
KSSQSTLYESRNKNSVA,WAYTRES,QQYHRLPLS,ND ND ND ND 3.39 1.93,2 of 18 (3.11)
TSSQSVLYESRNKNSVA,WAGTRES,QQYFRLPLS,ND ND ND ND ND ND,2 of 18 (1.00)
KFSQSVLYESHNKNSVA,EASTRES,QQYHRLPLS,0.28 0.78 0.84 0.39 0.53 0.36,0 of 18
KSSQSVLYEFRNKNSVA,WASTRES,QQYHRLPLS,ND 0.73 0.36 0.96 0.49 1.36,0 of 18
KSSQSVLYESRNENGVA,AASTRES,QQYHRLPIS,2.47 2.43 ND 2.23 2.49 ND,1 of 18 (2.34)
KSSQSVLYESRNHESVA,WGSTRES,KQYHRLPLS,ND ND ND ND ND ND,1 of 18 (1.84)
KLSQSVLYESRNVNSVA,HASTRES,QQYHRLPLS,0.19 0.39 0.13 0.36 0.39 0.46,4 of 18 (2.40)
KSIQSVLYESRDKNSVA,WASTRES,FQYHRLPLS,ND ND ND ND ND ND,0 of 18
KMSQSVLYESRNKVSVA,WASTRES,QQYHRLPLS,ND ND ND ND ND ND,0 of 18
KSSQSVLYESRNKNSVA,KASYRES,QQYARLPRS,ND ND ND ND ND ND,0 of 18
KSSQSVLYESRNKNSVA,WASTRIS,QQYHRLHLS,ND ND ND ND ND ND,0 of 18
KSSQSVLYESRNKNSVA,GGSTRES,QQYHRLPLW,0.45 0.28 0.44 0.10 0.42 0.36,0 of 18
KSSQSVLYEKRNANSVA,WASTRES,QSYHRLPLS,2.30 ND 1.50 2.27 2.36 2.66,0 of 18
KSSQSVLYYSRNKNSVA,DASTRES,QQYHRLPLS,0.52 0.27 0.45 0.03 0.26 0.34,2 of 18 (2.65)
LSSQSALYESRNKNSVA,WASTRES,QQYDRLPLS,ND ND ND ND ND ND,0 of 18
KSSQSKPIESHNKNSVA,WASTREH,QAYHRLPLS,ND ND ND ND ND ND,0 of 18
KSSQSVLYESRNKNSVA,WASTRES,QQYHRCPLC,ND ND ND ND ND ND,0 of 18
KSSQAVLYESRYKNSVA,YASTRES,QQYHRLPLD,ND ND ND ND ND ND,0 of 18
KSSQSILYQSRNKNSVA,WASTRVS,QQYHRLPLE,2.83 2.33 ND 2.00 2.56 2.29,0 of 18
QSSQSVLYEMRNKNSVA,AASIRES,QQYHRLPLS,0.89 0.78 0.81 0.85 0.10 0.52,1 of 18 (1.66)
KSSQSVLAESRNKNSVA,WASTRES,QQYMRLTLS,ND ND ND ND ND ND,0 of 18

Repeated from above, the 6 best binders with a signal in all replicates:

CDR-L1,CDR-L2,CDR-L3,log10 Kd (nM) by replicate,control signals
KGSQSVLYESLNKNSVA,QASTRES,QQYSRLPLS,-0.02 0.03 0.04 -0.28 -0.06 0.01,2 of 18 (2.40)
KSSESVLYESRNKNSVA,EASTRES,QQYHRLPLS,0.54 0.16 -0.04 0.12 0.38 0.06,2 of 18 (2.83)
KSSQSVLYYSRNKNSVA,DASTRES,QQYHRLPLS,0.52 0.27 0.45 0.03 0.26 0.34,2 of 18 (2.65)
KLSQSVLYESRNVNSVA,HASTRES,QQYHRLPLS,0.19 0.39 0.13 0.36 0.39 0.46,4 of 18 (2.40)
KSSQSVLYESRNKNSVA,GGSTRES,QQYHRLPLW,0.45 0.28 0.44 0.10 0.42 0.36,0 of 18
KSSNSVLGESRNKNSVA,EASTRED,QQYHRLPLS,0.47 0.47 0.52 0.37 0.49 0.40,1 of 18 (2.70)

Data: MIT Lincoln Laboratory AlphaSeq set, Li et al. 2023, doi:10.1038/s41467-023-39022-2, as distributed in FLAb.